Here are results for 1 molecule from patent US20230203021A1, “GLP-1 RECEPTOR AGONIST, PHARMACEUTICAL COMPOSITION COMPRISING SAME, AND METHOD FOR PREPARING SAME” (LG CHEM, LTD., priority 2020, published 2023).

By UniProt entry, the sequences of proteins in these tests, tags left out. Residues count along the entry.
UniProt P43220, 24-463 limits assumed: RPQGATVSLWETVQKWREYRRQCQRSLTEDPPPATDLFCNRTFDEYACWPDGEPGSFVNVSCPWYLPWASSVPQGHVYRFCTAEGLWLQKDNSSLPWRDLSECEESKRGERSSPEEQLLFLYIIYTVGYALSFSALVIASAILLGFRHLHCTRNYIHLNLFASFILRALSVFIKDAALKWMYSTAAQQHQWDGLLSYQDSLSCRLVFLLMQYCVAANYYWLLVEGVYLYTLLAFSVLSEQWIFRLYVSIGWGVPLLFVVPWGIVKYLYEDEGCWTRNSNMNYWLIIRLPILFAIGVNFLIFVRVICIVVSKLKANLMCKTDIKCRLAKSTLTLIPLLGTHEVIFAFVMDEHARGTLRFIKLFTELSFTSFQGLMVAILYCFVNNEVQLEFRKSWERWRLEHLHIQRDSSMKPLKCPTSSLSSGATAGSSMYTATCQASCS

This experiment concerns the target hGLP-1R (Homo sapiens, UniProt P43220). As to the kind of experiment: Measurement of activity of GLP-1R agonist (cell-based luciferase assay), CHO-K1/hGLP-1R/CRE-luciferase cell line. The conditions noted are these: GLP-1R activity; CHO-K1/hGLP-1R/CRE-luciferase cells, 9 concentrations, four hours of incubation, Bright-Glo luminescence.

SMILES strings stand for the structures.

As usually defined, the EC50 is the concentration at which the effect is half-maximal. A lower EC50 goes with an effect from little substance.

`O=C(O)c1ccc2nc(Cc3ccc(-c4cccc(OCc5ccc(Cl)cc5F)n4)cc3)n(Cc3cnco3)c2c1`: the half-maximal effective concentration (EC50) is 2.93 nM.
